ChEMBL document CHEMBL2321866 (J Med Chem, 2013)

Amino acid sequences for entries named in this document (tags omitted).
UniProt P34972, whole entry: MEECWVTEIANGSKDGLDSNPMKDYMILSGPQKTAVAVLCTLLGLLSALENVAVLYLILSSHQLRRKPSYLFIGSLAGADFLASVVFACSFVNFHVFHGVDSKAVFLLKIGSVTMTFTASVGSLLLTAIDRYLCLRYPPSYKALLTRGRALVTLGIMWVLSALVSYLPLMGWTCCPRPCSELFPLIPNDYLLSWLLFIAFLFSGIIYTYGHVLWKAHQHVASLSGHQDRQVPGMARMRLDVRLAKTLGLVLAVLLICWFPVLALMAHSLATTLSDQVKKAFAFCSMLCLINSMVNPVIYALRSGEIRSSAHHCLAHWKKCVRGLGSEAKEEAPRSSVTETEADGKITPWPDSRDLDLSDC

Key:
Homo sapiens = organism: Homo sapiens; test: Selectivity index, ratio of Ki for CB1 receptor (unknown origin) to Ki for CB2 receptor (unknown origin)
Cannabinoid receptor 2 = Cannabinoid receptor 2 (Homo sapiens, UniProt P34972); test: Displacement of [3H]CP-55,940 from CB2 receptor (unknown origin) after 1 hr by scintillation counting analysis

Row | SMILES | Ratio Ki (Homo sapiens) | Ki (Cannabinoid receptor 2; read-out: Ki) [nM] | further results
1 | CCN(CC)c1ccc(CN(c2ccc(Cl)cc2)S(=O)(=O)c2cccc(C)c2)cc1 | 309 |  | 
2 | CCN(CC)c1ccc(CN(c2ccc(C)cc2)S(=O)(=O)c2ccc(Cl)cc2)cc1 | 137 |  | 
3 | CCN(CC)c1ccc(CN(c2ccc(Cl)cc2)S(=O)(=O)c2ccccc2)cc1 |  |  | Ki (Cannabinoid receptor 2; read-out: pKi (converted)): 12.6 nM
4 | CCCCCCCN(Cc1ccc(N(CC)CC)cc1)S(=O)(=O)c1ccc(C)cc1 |  | 2740 | 
5 | CCN(CC)c1ccc(CN([C@]23C[C@H]4C[C@H](C[C@H](C4)C2)C3)S(=O)(=O)c2ccc(C)cc2)cc1 |  | 47 | 
